Amino acid sequences for entries named in this document (tags omitted).
UniProt P35462, whole entry: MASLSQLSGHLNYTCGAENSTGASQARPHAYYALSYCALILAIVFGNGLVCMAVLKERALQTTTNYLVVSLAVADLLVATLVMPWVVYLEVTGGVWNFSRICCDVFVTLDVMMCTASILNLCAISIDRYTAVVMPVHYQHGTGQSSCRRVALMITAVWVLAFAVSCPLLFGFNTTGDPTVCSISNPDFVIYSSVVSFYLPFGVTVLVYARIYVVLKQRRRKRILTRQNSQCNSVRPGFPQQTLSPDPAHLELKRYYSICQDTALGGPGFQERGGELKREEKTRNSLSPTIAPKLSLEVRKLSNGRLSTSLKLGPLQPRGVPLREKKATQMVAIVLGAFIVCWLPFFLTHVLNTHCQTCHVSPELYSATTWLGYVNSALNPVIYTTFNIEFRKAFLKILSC

Where a name gives a salt, the structure may show the parent alone.
What follows are molecules tested against T1, hD3 recombinant receptor (human dopamine type 3 receptor, CHO-hD3 membranes) (Homo sapiens (Human), UniProt P35462) (assay: biochemical). Details: D3 pKi, displacement of 0.3 nM [3H]-Spiperone; pKi accurate to about ±0.3-0.5.
For `Cc1ncoc1-c1nnc(SCCCN2CCC3(CCC3c3ccccc3)C2)n1C` (single isomer, unassigned) [Example 321, (1R,4S or 1S,4R or 1S,4S or 1R,4R)-6-(3-{[4-methyl-5-(4-methyl-1,3-oxazol-5-yl)-4H-1,2,4-triazol-3-yl]sulfanyl}propyl)-1-phenyl-6-azaspiro[3.4]octane hydrochloride], the Ki was 24 nM.
`Cc1ccc(C(N)=O)nc1-c1nnc(SCCCN2CC[C@]3(C[C@@H]3c3ccc(C(F)(F)F)cc3)C2)n1C.Cl` [Example 199, 5-methyl-6-[4-methyl-5-({3-[(1R,3S)-1-[4-(trifluoromethyl)phenyl]-5-azaspiro[2.4]heptan-5-yl]propyl}sulfanyl)-4H-1,2,4-triazol-3-yl]pyridine-2-carboxamide hydrochloride] showed a Ki of 17 nM.

These molecules were tested against T1, hD3 recombinant receptor (human dopamine type 3 receptor, CHO-hD3 membranes) (assay: not given). Details: displacement of 0.3 nM [3H]-Spiperone; pKi accurate to about ±0.3-0.5.
For `Cn1c(OCCCN2CC[C@]3(C[C@H]3c3ccc(C(F)(F)F)cc3)C2)nnc1C1CCOCC1` (single isomer, unassigned) [Example 304, (1S,3S or 1R,3R)-5-(3-{[4-methyl-5-(oxan-4-yl)-4H-1,2,4-triazol-3-yl]oxy}propyl)-1-[4-(trifluoromethyl)phenyl]-5-azaspiro[2.4]heptane], the “D3 pKi” value was 7.44.
`Cc1ncoc1-c1nnc(SCCCN2CC[C@]3(CC[C@H]3c3ccccc3)C2)n1C` (single isomer, unassigned) [Example 318, (1R,4S or 1S,4R or 1S,4S or 1R,4R)-6-(3-{[4-methyl-5-(4-methyl-1,3-oxazol-5-yl)-4H-1,2,4-triazol-3-yl]sulfanyl}propyl)-1-phenyl-6-azaspiro[3.4]octane] was tested, and the “D3 pKi” value was 7.34.
With `Cc1ncoc1-c1nnc(SCCCN2CCC[C@@]3(C[C@H]3c3ccc(C(F)(F)F)cc3)C2)n1C` (single isomer, unassigned) [Example 314, (1S,3S or 1R,3R)-5-(3-{[4-methyl-5-(4-methyl-1,3-oxazol-5-yl)-4H-1,2,4-triazol-3-yl]sulfanyl}propyl)-1-[4-(trifluoromethyl)phenyl]-5-azaspiro[2.5]octane] the “D3 pKi” value was 7.14.
In the case of `Cc1ncoc1-c1nnc(SCCCN2CCC[C@]3(C[C@H]3c3ccc(C(F)(F)F)cc3)C2)n1C` (single isomer, unassigned) [Example 312, (1S,3R or 1R,3S)-5-(3-{[4-methyl-5-(4-methyl-1,3-oxazol-5-yl)-4H-1,2,4-triazol-3-yl]sulfanyl}propyl)-1-[4-(trifluoromethyl)phenyl]-5-azaspiro[2.5]octane], the “D3 pKi” value is reported as 8.40.
With `Cn1c(OCCCN2CC[C@@]3(C[C@@H]3c3ccc(C(F)(F)F)cc3)C2)nnc1C1CCOCC1` (single isomer, unassigned) [Example 305, (1R,3R or 1S,3S)-5-(3-{[4-methyl-5-(oxan-4-yl)-4H-1,2,4-triazol-3-yl]oxy}-propyl)-1-[4-(trifluoromethyl)phenyl]-5-azaspiro[2.4]heptane] the “D3 pKi” value was 7.86.
